Measurements published in patent publication US11976099B2, “Compositions and methods for treatment of bone associated diseases” (THE NATIONAL INSTITUTE FOR BIOTECHNOLOGY IN THE NEGEV LTD., priority 2016, dated 2024).

Chains of the proteins cited; added tags and fusions are not shown. Residues count along the entry.
UniProt P07333, 20-512: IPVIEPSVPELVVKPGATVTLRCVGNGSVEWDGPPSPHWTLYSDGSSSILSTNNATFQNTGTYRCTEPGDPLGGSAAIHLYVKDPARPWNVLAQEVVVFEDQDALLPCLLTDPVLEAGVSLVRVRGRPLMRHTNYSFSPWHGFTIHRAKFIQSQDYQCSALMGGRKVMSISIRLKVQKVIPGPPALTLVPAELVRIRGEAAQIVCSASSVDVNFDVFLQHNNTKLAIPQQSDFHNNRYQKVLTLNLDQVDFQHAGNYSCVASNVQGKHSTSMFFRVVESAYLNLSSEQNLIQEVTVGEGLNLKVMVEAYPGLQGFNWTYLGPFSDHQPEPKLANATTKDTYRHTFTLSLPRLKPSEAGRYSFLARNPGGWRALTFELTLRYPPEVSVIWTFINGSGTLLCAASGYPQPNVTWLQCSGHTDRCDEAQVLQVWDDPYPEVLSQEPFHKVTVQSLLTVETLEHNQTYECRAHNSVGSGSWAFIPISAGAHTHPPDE

Target: human c-FMS (Homo sapiens, UniProt P07333)
Assay: SPR of immobilized purified proteins against soluble c-FMS (ProteOn XPR36)
Type: binding
Design: Soluble human c-FMS receptor (extracellular domains, residues Met1-Glu512) (Sino Biological, China); purchased Sino Biological
Conditions: c-FMS 0-200 nM, equilibrium
Description: Determination of binding of the soluble purified proteins (M-CSFM and M-CSFRGD variants) to c-FMS and αvβ3 integrin was performed on a ProteOn XPR36 (Bio-Rad, USA). The M-CSFRGD, M-CSFM and M-CSFαvβ3 protein variants were immobilized on the surface of the chip by using the amine coupling reagents sulfo-NHS (0.1 M N-hydroxysuccinimide) and EDC (0.4 M 1-ethyl-3-(3 dimethylaminopropyl)-carbodiimide), Bio-Rad, USA). To attach the M-CSFRGD, M-CSFM and M-CSFαvβ3 variants covalently to the chip, 1 μg of each protein and 3 μg of BSA in 10 mM sodium acetate buffer, pH 4.0, were used to give 474, 900 1329, 1272 and 1337 response units (RU) for M-CSFM, M-CSFαvβ3 4.22, 4.24 and 5.6 respectively. Unbound esters were deactivated with 1 M ethanolamine HCl at pH 8.5, and the temperature was set at 25° C. Then, the chip was rotated, and the human c-FMS soluble proteins (Sino Biological, China) were allowed to flow over the chip at 6 different concentrations (0, 12.5, 25, 50, 100 and 200 nM) at a flow rate of 50 μl/min for 490 s, followed by dissociation for 600 s in PBS+0.005% Tween (PBST). For determining αvβ3 integrin binding, the chip was regenerated using 50 mM NaOH at a flow rate of 100 μl/min and analyzed again for c-FMS binding to make sure that the chip had been regenerated. […]

KD to c-FMS: didn't show any binding
B1: M-CSFαvβ3: variant 4.22 with histidine to alanine mutations at positions 9 and 15; binds αvβ3 integrin but not c-FMS (protein)
chain: EEVSEYCSAMIGSGALQSLQRLIDQTSRGDSPSITFEFVDQEQLKDPVCYLKKAFLLVQDIMEDTMRFRDNTPNAIAIVQLQELSLRLKSCFTKDYEEHDKACVRTFYETPLQLLEKVKNVFNETKNLLDKDWNIFSKNCNNSFAECSSQGHERQSEGS
modifications: left off: small tags and cut ends
